Test results published in patent publication US12686687B2, “Compounds and uses thereof” (Foghorn Therapeutics Inc., priority 2019, dated 2026).
Where two headings read alike, the source gives them in different places.

Protein sequences, listed by entry. Tags and fused reporters are not part of them.
UniProt Q9H8M2, whole entry: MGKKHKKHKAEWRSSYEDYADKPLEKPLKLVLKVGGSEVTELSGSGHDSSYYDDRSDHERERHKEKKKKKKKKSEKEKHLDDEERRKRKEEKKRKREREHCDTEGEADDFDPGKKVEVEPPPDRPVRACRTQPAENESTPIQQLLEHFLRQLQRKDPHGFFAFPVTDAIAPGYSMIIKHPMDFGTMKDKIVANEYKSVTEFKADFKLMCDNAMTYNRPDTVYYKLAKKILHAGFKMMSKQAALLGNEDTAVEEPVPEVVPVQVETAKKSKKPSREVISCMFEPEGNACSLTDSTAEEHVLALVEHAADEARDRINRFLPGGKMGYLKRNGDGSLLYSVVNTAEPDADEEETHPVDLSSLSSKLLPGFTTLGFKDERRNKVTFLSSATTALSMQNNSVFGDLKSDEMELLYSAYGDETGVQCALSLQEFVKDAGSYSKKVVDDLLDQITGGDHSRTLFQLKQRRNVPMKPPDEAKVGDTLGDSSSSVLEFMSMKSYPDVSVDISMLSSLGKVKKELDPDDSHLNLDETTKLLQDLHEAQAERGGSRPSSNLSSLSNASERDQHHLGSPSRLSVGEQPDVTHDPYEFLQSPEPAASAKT

Molecular target: Nanoluciferase-BRD9 fusion protein (3×FLAG-NLuc-BRD9) in SYO-1 cells (Homo sapiens, UniProt Q9H8M2)
Assay: SYO1 BRD9 NanoLuc degradation assay
Conditions: read-out: SYO1 BRD9-NanoLuc degradation IC50, Table 6C, SYO-1 cells expressing 3×FLAG-NLuc-BRD9, 6 hours incubation, 1 μM top dose

Row | Structure (SMILES) | IC50 | further results
1 | COc1cc(-c2cn(C)c(=O)c3ncoc23)cc(OC)c1CN1CC(CN2CCC3(CC2)CN(c2ccc4c(c2)C(=O)N(C2CCC(=O)NC2=O)C4)C3)C1 (centres unmarked) | > 10 nM | 
2 | COc1cc(-c2cn(C)c(=O)c3occc23)cc(OC)c1CN1CCC2(CC1)CN(c1ccc3c(c1)C(=O)N(C1CCC(=O)NC1=O)C3)C2 (centres unmarked) | < 10 nM | 
3 | COc1cc(-c2cn(C)c(=O)c3ccoc23)cc(OC)c1CN1CC(CN2CCC3(CC2)CN(c2ccc4c(c2)C(=O)N(C2CCC(=O)NC2=O)C4)C3)C1 (centres unmarked) | < 10 nM | 
4 | COc1cc(-c2cn(C)c(=O)c3ncoc23)cc(OC)c1CN1CCC2(CC1)CN(c1ccc3c(c1)C(=O)N(C1CCC(=O)NC1=O)C3)C2 (centres unmarked) |  | IC50 (tested form: formate): < 10 nM
5 | COc1cc(-c2cn(C)c(=O)c3ccsc23)cc(OC)c1CN1CCN(c2ccc3c(c2)CN(C2CCC(=O)NC2=O)C3=O)CC12CCC2 (centres unmarked) |  | IC50 (tested form: TFA): < 10 nM
